From patent US20210386704A1, “MDMA RESPONSE PREDICTION” (Universitätsspital Basel, priority 2020, published 2021)

Test: Pooled analysis of ten placebo-controlled crossover studies: MDMA plasma concentration (AUC 0-6 h)
Conditions: oral 75 or 125 mg

CNC(C)Cc1ccc2c(c1)OCO2 (racemic) [MDMA, (±)3,4-methylenedioxymethamphetamine]
MDMA plasma AUC over 6 hours, relation to dose of MDMA (unadjusted linear mixed effects model (FIG. 1)): strongly and highly significantly correlated with the dose of MDMA | MDMA plasma AUC over 6 hours, relation to CYP2D6 activity (genetic) (unadjusted model (FIG. 1)): inversely correlated with the CYP2D6 activity | MDMA plasma AUC over 6 hours, relation to body weight (unadjusted model (FIG. 1)): strongly and highly significantly inversely correlated with the body weight
